Assay results from PubChem BioAssay (NCI).
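Each compound was tested at five concentrations against cells in 96-well plates for 48 hours. At the GI50, growth is halved. TGI marks complete inhibition of growth.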

How the values were obtained:
Assay in all cases: inhibition of tumour cell growth, NCI panel, 48 h
786-0 renal = tested on: 786-0 renal
A498 renal = tested on: A498 renal
A549 NSCLC = tested on: A549 NSCLC
ACHN renal = tested on: ACHN renal
BT-549 breast = tested on: BT-549 breast
CAKI-1 renal = tested on: CAKI-1 renal
CCRF-CEM leukemia = tested on: CCRF-CEM leukemia
COLO 205 colon = tested on: COLO 205 colon
DU-145 prostate = tested on: DU-145 prostate
EKVX NSCLC = tested on: EKVX NSCLC
HCC-2998 colon = tested on: HCC-2998 colon
HCT-116 colon = tested on: HCT-116 colon
HCT-15 colon = tested on: HCT-15 colon
HL-60(TB) leukemia = tested on: HL-60(TB) leukemia
HOP-62 NSCLC = tested on: HOP-62 NSCLC
HOP-92 NSCLC = tested on: HOP-92 NSCLC
HS 578T breast = tested on: HS 578T breast
HT29 colon = tested on: HT29 colon
IGROV1 ovarian = tested on: IGROV1 ovarian
K-562 leukemia = tested on: K-562 leukemia
KM12 colon = tested on: KM12 colon
LOX IMVI melanoma = tested on: LOX IMVI melanoma
M14 melanoma = tested on: M14 melanoma
MALME-3M melanoma = tested on: MALME-3M melanoma
MCF7 breast = tested on: MCF7 breast
MDA-MB-231 breast = tested on: MDA-MB-231 breast
MDA-MB-435 = tested on: MDA-MB-435
MDA-N = tested on: MDA-N
MOLT-4 leukemia = tested on: MOLT-4 leukemia
NCI-H226 lung = tested on: NCI-H226 lung
NCI-H23 lung = tested on: NCI-H23 lung
NCI-H322M lung = tested on: NCI-H322M lung
NCI-H460 lung = tested on: NCI-H460 lung
NCI-H522 lung = tested on: NCI-H522 lung
NCI/ADR-RES ovarian = tested on: NCI/ADR-RES ovarian
OVCAR-3 ovarian = tested on: OVCAR-3 ovarian
OVCAR-4 ovarian = tested on: OVCAR-4 ovarian
OVCAR-5 ovarian = tested on: OVCAR-5 ovarian
OVCAR-8 ovarian = tested on: OVCAR-8 ovarian
PC-3 prostate = tested on: PC-3 prostate
RPMI-8226 leukemia = tested on: RPMI-8226 leukemia
RXF 393 renal = tested on: RXF 393 renal
SF-268 CNS = tested on: SF-268 CNS
SF-295 CNS = tested on: SF-295 CNS
SK-MEL-2 melanoma = tested on: SK-MEL-2 melanoma
SK-MEL-28 melanoma = tested on: SK-MEL-28 melanoma
SK-MEL-5 melanoma = tested on: SK-MEL-5 melanoma
SK-OV-3 ovarian = tested on: SK-OV-3 ovarian
SN12C renal = tested on: SN12C renal
SNB-19 CNS = tested on: SNB-19 CNS
SNB-75 CNS = tested on: SNB-75 CNS
SR leukemia = tested on: SR leukemia
SW-620 colon = tested on: SW-620 colon
T-47D breast = tested on: T-47D breast
TK-10 renal = tested on: TK-10 renal
U251 CNS = tested on: U251 CNS
UACC-257 melanoma = tested on: UACC-257 melanoma
UACC-62 melanoma = tested on: UACC-62 melanoma
UO-31 renal = tested on: UO-31 renal

## O=[N+]([O-])C(F)(COCC(O)CO)[N+](=O)[O-] (stereo not drawn)
786-0 renal
  GI50: 3.3 µM
  TGI: 10.5 µM
A498 renal
  GI50: 21 µM
  TGI: 48.3 µM
A549 NSCLC
  GI50: 19.3 µM
  TGI: 39.2 µM
ACHN renal
  GI50: 14 µM
  TGI: 38.7 µM
BT-549 breast
  GI50: 5.67 µM
  TGI: 22.3 µM
CAKI-1 renal
  GI50: 6.51 µM
  TGI: 13.8 µM
CCRF-CEM leukemia
  GI50: 3.1 µM
  TGI: 20.1 µM
COLO 205 colon
  GI50: 9.61 µM
  TGI: 27 µM
DU-145 prostate
  GI50: 16.6 µM
  TGI: 32 µM
EKVX NSCLC
  GI50: 18.1 µM
  TGI: 42.4 µM
HCC-2998 colon
  GI50: 15.3 µM
  TGI: 39.5 µM
HCT-116 colon
  GI50: 7.33 µM
  TGI: 24.2 µM
HCT-15 colon
  GI50: 5.63 µM
  TGI: 39.5 µM
HL-60(TB) leukemia
  GI50: 2.48 µM
  TGI: 7.83 µM
HOP-62 NSCLC
  GI50: 21.6 µM
  TGI: 43.9 µM
HOP-92 NSCLC
  GI50: 11.9 µM
  TGI: 27.6 µM
HS 578T breast
  GI50: 32.7 µM
  TGI: 73.7 µM
HT29 colon
  GI50: 12.3 µM
  TGI: 47.4 µM
IGROV1 ovarian
  GI50: 10.8 µM
  TGI: 25.6 µM
K-562 leukemia
  GI50: 1.97 µM
  TGI: 19.2 µM
KM12 colon
  GI50: 15.2 µM
  TGI: 36.1 µM
LOX IMVI melanoma
  GI50: 10.7 µM
  TGI: 47.8 µM
M14 melanoma
  GI50: 6.54 µM
  TGI: 26.9 µM
MALME-3M melanoma
  GI50: 5.55 µM
  TGI: 19.8 µM
MCF7 breast
  GI50: 11 µM
  TGI: 45.3 µM
MDA-MB-231 breast
  GI50: 18.9 µM
  TGI: 38.9 µM
MDA-MB-435
  GI50: 2.79 µM
  TGI: 11.4 µM
MDA-N
  GI50: 2.92 µM
  TGI: 8.66 µM
MOLT-4 leukemia
  GI50: 6.27 µM
  TGI: 35.5 µM
NCI-H226 lung
  GI50: 25.9 µM
  TGI: 58.2 µM
NCI-H23 lung
  GI50: 23.5 µM
  TGI: 67.2 µM
NCI-H322M lung
  GI50: 20.3 µM
  TGI: 40 µM
NCI-H460 lung
  GI50: 16.2 µM
  TGI: 31.7 µM
NCI-H522 lung
  GI50: 3.56 µM
  TGI: 21.5 µM
NCI/ADR-RES ovarian
  GI50: 21.2 µM
  TGI: 52.3 µM
OVCAR-3 ovarian
  GI50: 12.8 µM
  TGI: 30.8 µM
OVCAR-4 ovarian
  GI50: 21.8 µM
  TGI: 61.7 µM
OVCAR-5 ovarian
  GI50: 22.8 µM
  TGI: 44.9 µM
OVCAR-8 ovarian
  GI50: 23.8 µM
  TGI: 55.1 µM
PC-3 prostate
  GI50: 16.8 µM
  TGI: 32.5 µM
RPMI-8226 leukemia
  GI50: 2.69 µM
  TGI: 12.4 µM
RXF 393 renal
  GI50: 30.6 µM
  TGI: > 100 µM
SF-268 CNS
  GI50: 25.2 µM
  TGI: 55.8 µM
SF-295 CNS
  GI50: 20.1 µM
  TGI: 42.7 µM
SK-MEL-2 melanoma
  GI50: 19.4 µM
  TGI: 39.1 µM
SK-MEL-28 melanoma
  GI50: 19.7 µM
  TGI: 55.6 µM
SK-MEL-5 melanoma
  GI50: 11 µM
  TGI: 26 µM
SK-OV-3 ovarian
  GI50: 22.6 µM
  TGI: 49.3 µM
SN12C renal
  GI50: 16.3 µM
  TGI: 32.1 µM
SNB-19 CNS
  GI50: 15.5 µM
  TGI: 29.6 µM
SNB-75 CNS
  GI50: 22 µM
  TGI: 52.1 µM
SR leukemia
  GI50: 2.33 µM
  TGI: 8.99 µM
SW-620 colon
  GI50: 3.79 µM
  TGI: 28.8 µM
T-47D breast
  GI50: 10.3 µM
  TGI: 39.5 µM
TK-10 renal
  GI50: 12.4 µM
  TGI: 48.9 µM
U251 CNS
  GI50: 20.3 µM
  TGI: 44.3 µM
UACC-257 melanoma
  GI50: 14.4 µM
  TGI: 29.1 µM
UACC-62 melanoma
  GI50: 8.53 µM
  TGI: 23.8 µM
UO-31 renal
  GI50: 17.6 µM
  TGI: 33.7 µM
